Like-named read-outs stand apart in the source and are kept apart here.
Biological target: N4posAbl (Abl kinase domain with N-terminal KRKKSGG tag) (Homo sapiens, UniProt P00519)
Experiment: ClyA-AS nanopore tweezers single-channel current recording: ligand binding to N4posAbl
Settings: pH 7.5

By UniProt entry, the sequences of proteins in these tests, tags left out. Residues count along the entry.
UniProt P00519, 229-512: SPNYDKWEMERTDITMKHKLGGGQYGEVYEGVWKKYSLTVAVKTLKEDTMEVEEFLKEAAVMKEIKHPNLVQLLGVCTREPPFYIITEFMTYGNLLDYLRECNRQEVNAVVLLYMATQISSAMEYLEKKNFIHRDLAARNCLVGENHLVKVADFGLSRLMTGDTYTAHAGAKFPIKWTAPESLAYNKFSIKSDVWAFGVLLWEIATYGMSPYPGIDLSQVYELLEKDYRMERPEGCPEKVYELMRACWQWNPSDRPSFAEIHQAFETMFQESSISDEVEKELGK

Substance: ATP
- Kd (read-out: KD of ATP, S1a binding mode): 81.6 ± 17.9 µM
- Kd (read-out: KD of ATP, S1d binding mode): 113 ± 25.3 µM
